Earlier results in article PMC9321663, “The DevTox Germ Layer Reporter Platform: An Assay Adaptation of the Human Pluripotent Stem Cell Test” (Toxics, 2022).

Conditions: Table S2; cited from earlier work

Row | Structure (SMILES) | Development Toxicant Classification
1 | CCCc1cc(=O)[nH]c(=S)[nH]1 | Positive
2 | OB(O)O [Boric acid] | Positive
